Paper PMC9841523, “Discovery of RMC-5552, a Selective Bi-Steric Inhibitor of mTORC1, for the Treatment of mTORC1-Activated Tumors” (Journal of Medicinal Chemistry, 2022)

Molecular target: mTORC1 (UniProt P42345)
Assay: cryo-EM structure; mTORC1-RMC-5552-FKBP12 complex; about 800 000 particles, map of 3.1 Å with 2-fold symmetry; final monomeric map of 2.9 Å (PDB 8ERA)

- stoichiometry N: 2
Substance: mTORC1 (from UniProt P42345 1-2549; Q8N122 1-1335; Q9BVC4 1-326) (complex)
